ChEMBL document CHEMBL2169863, “Discovery, structure-activity relationship, and biological evaluation of noninhibitory small molecule chaperones of glucocerebrosidase” (J Med Chem, 2012)
pIC50: −log10 of the molar value.

Amino acid sequences for entries named in this document (tags omitted). Residues count along the entry.
UniProt P04062, 40-536 N409S limits assumed: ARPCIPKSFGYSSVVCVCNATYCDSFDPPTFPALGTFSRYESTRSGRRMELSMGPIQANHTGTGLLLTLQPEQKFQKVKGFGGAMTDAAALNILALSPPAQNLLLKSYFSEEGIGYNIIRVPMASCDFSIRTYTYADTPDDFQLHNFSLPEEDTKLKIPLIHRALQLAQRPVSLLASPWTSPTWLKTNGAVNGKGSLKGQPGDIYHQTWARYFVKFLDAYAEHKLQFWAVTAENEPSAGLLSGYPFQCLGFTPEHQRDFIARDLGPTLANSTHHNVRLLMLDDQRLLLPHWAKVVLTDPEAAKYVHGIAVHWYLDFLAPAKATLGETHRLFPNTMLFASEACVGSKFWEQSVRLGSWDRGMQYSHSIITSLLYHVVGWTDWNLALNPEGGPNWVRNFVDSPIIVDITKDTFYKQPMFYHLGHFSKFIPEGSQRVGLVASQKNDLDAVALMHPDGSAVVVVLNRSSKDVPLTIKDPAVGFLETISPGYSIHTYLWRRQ

What was measured:
[1] = molecular target: Lysosomal acid glucosylceramidase (Homo sapiens, UniProt P04062, N409S); experiment: Inhibition of glucocerebrosidase N370S mutant using 4-methylumbellifereno-Glc as substrate incubated for 5 mins prior to substrate addition measured after 20 mins by fluorimetric analysis
[2] = molecular target: T1, Lysosomal acid glucosylceramidase (Homo sapiens, UniProt P04062); experiment: Inhibition of wild type glucocerebrosidase in human spleen homogenate using 4-methylumbellifereno-Glc as substrate incubated for 5 mins prior to substrate addition measured after 20 mins by fluorimetric analysis; type: tissue-based
T1 sequence (P04062 whole entry): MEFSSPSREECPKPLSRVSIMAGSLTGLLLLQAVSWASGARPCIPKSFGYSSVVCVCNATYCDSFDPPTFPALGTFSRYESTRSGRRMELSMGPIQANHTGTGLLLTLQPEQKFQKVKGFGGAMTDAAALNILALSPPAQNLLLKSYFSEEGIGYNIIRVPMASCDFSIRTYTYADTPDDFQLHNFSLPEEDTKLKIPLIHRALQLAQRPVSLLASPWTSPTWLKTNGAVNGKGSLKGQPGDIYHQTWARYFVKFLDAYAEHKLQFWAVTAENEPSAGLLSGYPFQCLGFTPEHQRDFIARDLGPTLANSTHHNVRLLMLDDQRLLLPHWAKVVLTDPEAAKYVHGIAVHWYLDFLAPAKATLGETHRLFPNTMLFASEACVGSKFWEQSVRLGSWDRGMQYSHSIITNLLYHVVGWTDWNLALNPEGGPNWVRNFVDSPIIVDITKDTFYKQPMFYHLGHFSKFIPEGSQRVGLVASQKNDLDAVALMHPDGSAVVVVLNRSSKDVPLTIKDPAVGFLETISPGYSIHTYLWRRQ

[3] = molecular target: T1, Lysosomal acid glucosylceramidase; experiment: Inhibition of wild type glucocerebrosidase using 4-methylumbellifereno-Glc as substrate incubated for 5 mins prior to substrate addition measured after 20 mins by fluorimetric analysis

pIC50 [1]	pIC50 [2]	pIC50 [3]	SMILES
6.25	5.66	7.52	Cc1cc(N2CCOCC2)nc2ccc(NC(=O)C3CCCCC3)cc12
4.96	5.10	6.40	COc1ccc(Cl)cc1Nc1nc(NCCO)nc(N2CCCC2)n1

SMILES	pIC50 [1]	pIC50 [2]	pIC50 [3]
CCc1nnc(NC(=O)c2ccc(NS(=O)(=O)c3ccccc3)cc2)s1	5.80	5.49	7.00
